From patent publication EP0153845A2, “CRF analogs” (THE SALK INSTITUTE FOR BIOLOGICAL STUDIES, priority 1984, dated 1985)

How the values were obtained:
spontaneous ACTH release = assay: Spontaneous ACTH release by adrenalectomized rats; type: in vivo; conditions: iv injection of 3 mg/kg BW (2.7 nmole)
Method: The synthetic CRF antagonists from Examples XLI and XLII are examined for their effects on the secretion of ACTH and B-endorphin in vitro and the synthetic AHC peptide is also examined in vivo. The effectiveness of synthetic CRF antagonists to block the secretion of ACTH and B-endorphin by cultured rat pituitary cells is measured using the procedure as generally set forth in Vale et al., Endocrinology, 91, 562 (1972). In vivo testing is carried out using the general procedure set forth in C. Rivier et al., Science, 218, 377 (1982).
The in vivo effect of CRF antagonists is tested on the spontaneous ACTH release by adrenalectomized rats.

[1] = test system: CRF-induced ACTH secretion; assay: CRF-induced ACTH secretion in intact, non-anesthetized rats; type: in vivo

CSCC[C@H](NC(=O)[C@H](CCC(=O)O)NC(=O)[C@H](CC(C)C)NC(=O)[C@H](CCSC)NC(=O)[C@H](CCC(=O)O)NC(=O)[C@H](CCCNC(=N)N)NC(=O)[C@H](CC(C)C)NC(=O)[C@H](CC(C)C)NC(=O)[C@H](Cc1c[nH]cn1)NC(=O)[C@H](Cc1ccccc1)NC(=O)[C@@H](NC(=O)[C@H](CC(C)C)NC(=O)[C@@H](N)CC(=O)O)[C@@H](C)O)C(=O)N[C@@H](C)C(=O)N[C@@H](CCCCN)C(=O)N[C@@H](C)C(=O)N[C@@H](CCC(=O)O)C(=O)N[C@@H](CCC(N)=O)C(=O)N[C@@H](CCC(=O)O)C(=O)N[C@@H](C)C(=O)N[C@@H](CCC(=O)O)C(=O)N[C@@H](CCC(N)=O)C(=O)N[C@@H](C)C(=O)N[C@@H](C)C(=O)N[C@@H](CC(C)C)C(=O)N[C@@H](CC(N)=O)C(=O)N[C@@H](CCCNC(=N)N)C(=O)N[C@@H](CC(C)C)C(=O)N[C@@H](CC(C)C)C(=O)N[C@@H](CC(C)C)C(=O)N[C@@H](CCC(=O)O)C(=O)N[C@@H](CCC(=O)O)C(=O)N[C@@H](C)C(N)=O [AHC (9-41)]
time for which the decrease in plasma ACTH levels is statistically significant (spontaneous ACTH release): 2 h
dose level at which inhibition of CRF-induced ACTH secretion is significant [1]: 0.09 pmol
